From US20260174855A1 (priority 2022, published 2026)

Sequences of proteins named here, by UniProt entry; tags and fusion partners are left off.
UniProt P41143, whole entry: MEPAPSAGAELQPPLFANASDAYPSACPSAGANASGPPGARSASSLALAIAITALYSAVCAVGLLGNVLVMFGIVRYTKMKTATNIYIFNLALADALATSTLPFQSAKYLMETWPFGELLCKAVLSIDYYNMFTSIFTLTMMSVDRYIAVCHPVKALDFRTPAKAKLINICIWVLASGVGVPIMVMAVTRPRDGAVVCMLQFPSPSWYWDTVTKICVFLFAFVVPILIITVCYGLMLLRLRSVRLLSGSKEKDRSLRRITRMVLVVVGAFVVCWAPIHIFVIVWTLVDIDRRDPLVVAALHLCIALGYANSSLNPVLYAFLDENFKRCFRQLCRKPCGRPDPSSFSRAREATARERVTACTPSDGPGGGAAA

Biological target: hDOR (Homo sapiens, UniProt P41143)
Experiment: [35S]GTPγS binding, G-protein activation
Format: biochemical
Conditions: determined from single-concentration (1 μM) experiments

## DPDPE
  Emax (% of vehicle): *172.00 % of vehicle
